Assay [1] can be described thus: Selectivity index, ratio of Ki for Sabra rat brain synaptosome CB1 receptor to Ki for CB2 receptor (unknown origin) extracted from green monkey COS-7 cells.
The species named for another assay is Homo sapiens. Nature of the assay: Selectivity ratio of Ki for human CB1 receptor extracted from HEK293 cell membrane to Ki for human CB2 receptor extracted from HEK293 cell membrane.
In assay [2] the target is T1, Cannabinoid receptor 2 (Homo sapiens, UniProt P34972). As to the kind of experiment: Agonist activity at human CB2 receptor extracted from CHO cell membrane assessed as increase in [35S]GTPgammaS binding incubated for 60 mins by liquid scintillation spectrometric analysis. The format is functional, cell membranes.
Assay [3] addresses T1, Cannabinoid receptor 2. Nature of the assay: Binding affinity to CB2 receptor (unknown origin) assessed as inhibition constant.

Sequences of proteins named here, by UniProt entry; tags and fusion partners are left off.
UniProt P34972, whole entry: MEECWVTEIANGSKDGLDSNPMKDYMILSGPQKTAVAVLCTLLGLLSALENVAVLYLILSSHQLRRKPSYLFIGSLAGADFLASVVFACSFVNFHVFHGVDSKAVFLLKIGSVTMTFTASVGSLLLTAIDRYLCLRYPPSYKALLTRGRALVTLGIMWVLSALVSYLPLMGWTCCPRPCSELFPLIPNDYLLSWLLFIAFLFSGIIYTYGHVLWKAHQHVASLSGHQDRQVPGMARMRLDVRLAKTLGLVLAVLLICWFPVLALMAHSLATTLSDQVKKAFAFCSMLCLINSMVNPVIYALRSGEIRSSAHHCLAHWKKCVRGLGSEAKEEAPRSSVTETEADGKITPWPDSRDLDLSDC

Where only a bound is given, the exact number is not on record here.

Regarding `C=C(C)[C@H]1CCC(CO)=C[C@@H]1c1c(O)cc(C(C)(C)CCCCCC)cc1O`, in assay [1], the Ratio Ki worked out at 0.05.
Take `C=C(C)[C@@H]1CCC(C)=C[C@H]1c1c(O)cc(CCCCC)c(C(=O)OCC(O)CCC)c1O` (some centres not stated): the Ratio Ki in the assay filed under Homo sapiens worked out at 8.1.
On to `C=C(C)[C@H]1CCC(C)=C[C@@H]1c1c(O)cc(C(C)(C)CCCCCC)cc1O`, for which the Ratio Ki in assay [1] came to 0.08.
Regarding `CCCCCCC(C)(C)c1cc(OC)c([C@H]2C=C(CO)[C@H]3C[C@@H]2C3(C)C)c(OC)c1`, at Cannabinoid receptor 2 [2], the EC50 worked out at 5.57 nM.
With `C=C(C)[C@H]1CCC(C)=C[C@@H]1c1c(O)cc(CCC)cc1O`, in the assay filed under Homo sapiens, the Ratio Ki was found to be 8.9.
On to `CCCCCCC(C)(C)c1cc(OC)c([C@@H]2C=C(CO)[C@@H]3C[C@H]2C3(C)C)c(OC)c1` [ONTERNABEZ], for which the Ki on Cannabinoid receptor 2 [3] was over 1000 nM.
`C=C(C)[C@H]1CCC(C)=C[C@@H]1c1c(O)cc(CCCCC)cc1O`: the Ratio Ki in assay [1] was found to be 4.1.

For the origin of these results see ChEMBL document CHEMBL6078669, “Stereoisomers of cannabidiols and their pharmacological activities - A potentially novel direction for cannabinoids” (Bioorg Med Chem, 2025).
